Literature values in patent US20170173134A1 (priority 2011, published 2017).

Settings: in vivo; cited from earlier work

**Q.** With Bacillus Calmette-Guérin [BCG] as the substance, how does the “Cystitis, (%) patients affected” value read?
**A.** >50%

**Q.** What about the “Epididymitis, (%) patients affected” value of the same substance?
**A.** <2%

**Q.** What about the “Fever (high grade), (%) patients affected” value of the same substance?
**A.** 3%

**Q.** What about the “Fever (low grade), (%) patients affected” value of the same substance?
**A.** 25%

**Q.** And the “Generalized infection, (%) patients affected” value?
**A.** Rarely

**Q.** What about the “Prostatitis, (%) patients affected” value of the same substance?
**A.** <5%

**Q.** What about the “Septicemia, (%) patients affected” value of the same substance?
**A.** <0.5- %

**Q.** What about the “patients affected by systemic complications such as fever” value of the same substance?
**A.** around 15%

**Q.** And the “patients who completed the entire period of intended treatment (SWOG 8507)” value?
**A.** 16%

**Q.** And the “withdrawal from treatment because of systemic complications” value?
**A.** around 5%
